Literature values as cited in US12042530B2, “Target peptides for immunotherapy and diagnostics” (University of Virginia Patent Foundation, priority 2012, dated 2024).

System: melanoma
Conditions: reported; cited from earlier work

With “high-dose interleukin-2: FDA approved immune therapy for advanced melanoma” as the substance, how does the Objective response rate read?
Its Objective response rate is 17%.
